{
  "source": "patent US4045567A",
  "about": "“2-Alkyl-5-thiazole-carboxylic acid derivatives in hypolipemiant compositions” (Roussel Uclaf, priority 1969, dated 1977)",
  "assay": "in vivo",
  "conditions": "mouse, mice, oral, observed one week, read-out: average lethal dose (LD50), Oral Route",
  "description": "1. determination of the acute toxicity:\nThe acute toxicity has been determined on batches of ten mice weighing from 18 to 22 gm. The products were administered in suspension in gum arabic solution in water, at increasing doses, either by oral route or by intraperitoneal route.\nThe animals are kept under observation for one week. The average lethal dose (LD50) is determined graphically by the method of Dragstedt and Lang.\nThe acute toxicity was determined on batches of ten mice weighing from 18 to 22 gm. Ethyl 2-n-propyl-thiazole-4-carboxylate was administered in suspension in gum arabic solution in water, at increasing doses by the intraperitoneal route. The animals were kept under observation for one week. The average lethal dose (LD50) was determined graphically by the method of Dragstedt and Lang.",
  "data": [
    {"smiles": "Cc1ncc(C(=O)O)s1", "note": "[2-methyl-5-thiazolecarboxylic acid]", "values": [
      {"measurement": "LD50 at 168 h", "result": "> 2000", "unit": "mg/kg"}
    ]}
  ]
}
